Measurements reported in the kinase profiling compilation of Christmann-Franck et al. (2016).

Chains of the proteins cited; added tags and fusions are not shown. Lines headed by an entry give the natural chain unless they say otherwise; changes in a name come on top.
UniProt Q9H3Y6: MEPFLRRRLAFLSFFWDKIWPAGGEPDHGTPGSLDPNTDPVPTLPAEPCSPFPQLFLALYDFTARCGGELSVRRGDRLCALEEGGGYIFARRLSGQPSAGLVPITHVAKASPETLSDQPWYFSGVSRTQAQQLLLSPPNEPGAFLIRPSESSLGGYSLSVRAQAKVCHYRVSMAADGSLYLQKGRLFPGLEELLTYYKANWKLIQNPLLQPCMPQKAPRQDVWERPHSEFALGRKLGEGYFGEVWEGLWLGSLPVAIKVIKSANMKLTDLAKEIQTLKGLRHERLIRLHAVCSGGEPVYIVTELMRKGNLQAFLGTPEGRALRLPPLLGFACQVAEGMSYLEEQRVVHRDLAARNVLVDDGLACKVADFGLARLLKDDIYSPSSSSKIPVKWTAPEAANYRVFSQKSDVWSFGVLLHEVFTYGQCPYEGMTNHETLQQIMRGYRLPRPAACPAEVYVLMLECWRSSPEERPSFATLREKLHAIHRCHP
UniProt Q5S007: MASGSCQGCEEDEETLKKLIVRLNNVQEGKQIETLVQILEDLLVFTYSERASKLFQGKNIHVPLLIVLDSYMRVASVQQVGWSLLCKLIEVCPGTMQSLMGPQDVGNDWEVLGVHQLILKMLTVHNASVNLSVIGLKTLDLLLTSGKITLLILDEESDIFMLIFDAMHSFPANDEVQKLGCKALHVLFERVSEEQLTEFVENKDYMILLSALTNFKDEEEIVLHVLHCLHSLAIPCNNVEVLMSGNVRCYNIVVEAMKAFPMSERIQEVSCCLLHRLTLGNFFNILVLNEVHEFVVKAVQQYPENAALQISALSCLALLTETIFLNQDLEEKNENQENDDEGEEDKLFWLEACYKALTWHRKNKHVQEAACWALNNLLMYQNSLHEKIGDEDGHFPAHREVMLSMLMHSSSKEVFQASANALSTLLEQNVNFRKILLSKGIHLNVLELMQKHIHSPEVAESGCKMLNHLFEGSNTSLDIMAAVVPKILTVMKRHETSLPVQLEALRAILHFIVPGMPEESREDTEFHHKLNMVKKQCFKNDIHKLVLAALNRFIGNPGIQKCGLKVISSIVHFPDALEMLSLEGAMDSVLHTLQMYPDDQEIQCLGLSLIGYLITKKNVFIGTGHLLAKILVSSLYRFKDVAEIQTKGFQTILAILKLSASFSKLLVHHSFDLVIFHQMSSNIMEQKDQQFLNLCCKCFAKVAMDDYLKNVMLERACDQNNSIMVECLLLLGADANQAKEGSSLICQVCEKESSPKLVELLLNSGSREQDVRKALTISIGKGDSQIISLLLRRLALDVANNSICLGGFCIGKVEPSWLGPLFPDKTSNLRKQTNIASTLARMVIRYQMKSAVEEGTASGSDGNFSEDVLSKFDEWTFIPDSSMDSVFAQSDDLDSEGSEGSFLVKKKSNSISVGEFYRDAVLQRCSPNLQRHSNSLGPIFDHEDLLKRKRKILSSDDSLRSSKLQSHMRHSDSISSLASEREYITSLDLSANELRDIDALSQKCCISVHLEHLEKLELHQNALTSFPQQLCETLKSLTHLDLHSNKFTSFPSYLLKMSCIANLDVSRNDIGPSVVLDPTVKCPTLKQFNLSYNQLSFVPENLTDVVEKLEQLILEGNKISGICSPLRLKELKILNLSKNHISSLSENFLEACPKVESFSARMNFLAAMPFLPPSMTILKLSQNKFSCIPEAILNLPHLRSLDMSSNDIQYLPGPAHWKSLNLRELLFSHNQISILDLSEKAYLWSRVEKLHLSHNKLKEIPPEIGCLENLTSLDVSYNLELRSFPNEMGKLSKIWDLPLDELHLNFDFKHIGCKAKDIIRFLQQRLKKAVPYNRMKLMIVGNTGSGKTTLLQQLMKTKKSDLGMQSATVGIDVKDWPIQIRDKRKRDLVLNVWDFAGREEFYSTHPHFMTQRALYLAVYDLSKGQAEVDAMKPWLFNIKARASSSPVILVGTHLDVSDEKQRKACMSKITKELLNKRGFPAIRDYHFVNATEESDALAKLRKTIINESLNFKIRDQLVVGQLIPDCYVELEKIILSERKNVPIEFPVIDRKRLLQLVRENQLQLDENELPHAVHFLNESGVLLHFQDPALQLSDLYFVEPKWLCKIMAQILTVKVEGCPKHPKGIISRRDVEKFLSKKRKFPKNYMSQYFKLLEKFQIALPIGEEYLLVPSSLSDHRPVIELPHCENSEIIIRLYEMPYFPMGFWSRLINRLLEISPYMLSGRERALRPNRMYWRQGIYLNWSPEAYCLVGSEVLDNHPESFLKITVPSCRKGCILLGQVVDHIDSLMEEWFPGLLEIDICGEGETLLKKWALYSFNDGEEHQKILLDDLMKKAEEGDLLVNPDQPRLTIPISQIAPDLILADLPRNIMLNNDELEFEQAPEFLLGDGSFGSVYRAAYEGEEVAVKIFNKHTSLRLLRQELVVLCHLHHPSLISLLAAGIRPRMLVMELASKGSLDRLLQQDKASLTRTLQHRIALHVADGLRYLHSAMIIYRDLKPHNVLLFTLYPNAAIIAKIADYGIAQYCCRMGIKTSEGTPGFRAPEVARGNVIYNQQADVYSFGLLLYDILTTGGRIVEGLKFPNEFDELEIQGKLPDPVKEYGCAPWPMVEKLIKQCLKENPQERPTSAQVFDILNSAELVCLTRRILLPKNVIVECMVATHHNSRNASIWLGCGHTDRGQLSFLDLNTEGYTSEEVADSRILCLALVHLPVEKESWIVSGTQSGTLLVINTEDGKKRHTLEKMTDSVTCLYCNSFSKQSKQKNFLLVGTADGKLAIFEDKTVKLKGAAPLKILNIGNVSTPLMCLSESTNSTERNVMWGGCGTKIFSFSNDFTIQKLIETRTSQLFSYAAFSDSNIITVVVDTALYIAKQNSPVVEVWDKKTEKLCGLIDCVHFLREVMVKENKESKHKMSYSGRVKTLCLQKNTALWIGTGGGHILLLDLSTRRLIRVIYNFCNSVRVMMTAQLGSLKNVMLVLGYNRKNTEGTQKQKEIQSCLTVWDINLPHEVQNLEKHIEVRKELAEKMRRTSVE
UniProt Q9UF33: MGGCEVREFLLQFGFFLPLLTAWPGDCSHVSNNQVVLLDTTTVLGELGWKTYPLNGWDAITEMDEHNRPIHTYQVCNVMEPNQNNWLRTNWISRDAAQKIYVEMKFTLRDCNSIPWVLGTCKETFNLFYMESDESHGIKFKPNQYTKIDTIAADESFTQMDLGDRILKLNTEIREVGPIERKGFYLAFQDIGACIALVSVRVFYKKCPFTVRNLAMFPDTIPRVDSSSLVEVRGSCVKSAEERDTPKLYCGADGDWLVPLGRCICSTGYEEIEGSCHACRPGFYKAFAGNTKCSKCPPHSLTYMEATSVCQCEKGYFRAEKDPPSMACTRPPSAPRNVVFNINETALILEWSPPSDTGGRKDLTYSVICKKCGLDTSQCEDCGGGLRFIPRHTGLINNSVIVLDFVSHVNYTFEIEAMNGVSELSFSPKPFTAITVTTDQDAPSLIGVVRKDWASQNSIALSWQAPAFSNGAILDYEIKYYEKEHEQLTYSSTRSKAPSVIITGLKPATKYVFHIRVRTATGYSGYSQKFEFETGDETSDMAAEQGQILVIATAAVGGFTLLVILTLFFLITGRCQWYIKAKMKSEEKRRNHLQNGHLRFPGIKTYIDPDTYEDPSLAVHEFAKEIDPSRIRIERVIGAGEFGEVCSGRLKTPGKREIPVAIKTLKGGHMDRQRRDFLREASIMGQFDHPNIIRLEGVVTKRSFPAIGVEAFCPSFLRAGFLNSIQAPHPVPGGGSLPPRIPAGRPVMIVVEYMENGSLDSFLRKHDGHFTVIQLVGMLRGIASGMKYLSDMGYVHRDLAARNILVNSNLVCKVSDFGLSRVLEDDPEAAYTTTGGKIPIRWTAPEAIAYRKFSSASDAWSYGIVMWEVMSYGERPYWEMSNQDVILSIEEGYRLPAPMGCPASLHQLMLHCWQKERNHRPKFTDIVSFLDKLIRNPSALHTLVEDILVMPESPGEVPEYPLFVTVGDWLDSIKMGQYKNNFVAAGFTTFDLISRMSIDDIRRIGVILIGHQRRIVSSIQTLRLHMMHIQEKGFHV
UniProt Q14164: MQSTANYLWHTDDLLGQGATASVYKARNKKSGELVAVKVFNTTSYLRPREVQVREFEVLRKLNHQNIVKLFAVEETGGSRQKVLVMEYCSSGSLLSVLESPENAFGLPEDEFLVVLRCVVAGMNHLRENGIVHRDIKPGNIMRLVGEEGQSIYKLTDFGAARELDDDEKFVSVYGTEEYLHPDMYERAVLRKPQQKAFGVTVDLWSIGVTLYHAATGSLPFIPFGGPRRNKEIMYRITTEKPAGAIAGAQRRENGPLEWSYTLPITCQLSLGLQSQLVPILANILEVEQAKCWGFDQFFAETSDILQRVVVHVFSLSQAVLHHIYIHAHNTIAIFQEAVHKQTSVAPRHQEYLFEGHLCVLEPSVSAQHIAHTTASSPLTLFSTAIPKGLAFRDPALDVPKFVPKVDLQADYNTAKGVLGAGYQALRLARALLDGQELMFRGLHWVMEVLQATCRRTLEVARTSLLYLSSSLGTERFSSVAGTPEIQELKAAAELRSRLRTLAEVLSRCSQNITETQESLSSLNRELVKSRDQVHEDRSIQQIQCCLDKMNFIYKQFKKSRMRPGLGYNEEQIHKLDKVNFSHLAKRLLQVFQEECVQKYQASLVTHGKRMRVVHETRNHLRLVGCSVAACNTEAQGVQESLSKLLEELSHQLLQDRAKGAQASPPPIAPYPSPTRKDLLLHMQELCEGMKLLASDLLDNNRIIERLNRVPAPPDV
UniProt Q9Y6M4: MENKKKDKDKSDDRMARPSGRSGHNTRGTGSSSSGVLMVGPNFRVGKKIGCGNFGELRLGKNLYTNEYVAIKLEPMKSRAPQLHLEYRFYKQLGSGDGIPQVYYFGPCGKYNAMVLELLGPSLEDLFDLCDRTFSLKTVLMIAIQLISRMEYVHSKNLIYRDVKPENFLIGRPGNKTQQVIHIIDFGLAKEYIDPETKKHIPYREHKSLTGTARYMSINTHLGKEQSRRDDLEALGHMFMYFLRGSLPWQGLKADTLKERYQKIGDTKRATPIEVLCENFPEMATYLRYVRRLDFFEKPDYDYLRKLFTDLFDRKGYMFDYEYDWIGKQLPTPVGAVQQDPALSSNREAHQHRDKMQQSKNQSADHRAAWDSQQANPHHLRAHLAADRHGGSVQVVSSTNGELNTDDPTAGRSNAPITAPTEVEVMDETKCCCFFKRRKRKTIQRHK
UniProt Q8NE63: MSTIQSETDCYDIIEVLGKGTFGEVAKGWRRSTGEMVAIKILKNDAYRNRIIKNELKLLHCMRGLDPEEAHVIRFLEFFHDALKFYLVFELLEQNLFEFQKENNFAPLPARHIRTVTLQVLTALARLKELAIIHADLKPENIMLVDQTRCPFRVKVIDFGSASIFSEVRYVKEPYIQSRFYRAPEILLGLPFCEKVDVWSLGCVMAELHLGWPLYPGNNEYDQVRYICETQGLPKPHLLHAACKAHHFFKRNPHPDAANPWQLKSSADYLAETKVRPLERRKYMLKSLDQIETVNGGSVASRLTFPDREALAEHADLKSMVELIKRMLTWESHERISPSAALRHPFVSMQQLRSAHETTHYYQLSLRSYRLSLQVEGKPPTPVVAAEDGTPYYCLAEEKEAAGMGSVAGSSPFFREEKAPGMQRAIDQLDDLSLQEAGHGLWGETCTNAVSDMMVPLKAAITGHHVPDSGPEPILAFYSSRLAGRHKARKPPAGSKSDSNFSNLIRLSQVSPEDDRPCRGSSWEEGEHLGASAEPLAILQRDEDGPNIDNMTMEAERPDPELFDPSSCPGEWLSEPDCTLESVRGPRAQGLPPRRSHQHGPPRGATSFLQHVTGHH
UniProt O95747, whole entry, looked up: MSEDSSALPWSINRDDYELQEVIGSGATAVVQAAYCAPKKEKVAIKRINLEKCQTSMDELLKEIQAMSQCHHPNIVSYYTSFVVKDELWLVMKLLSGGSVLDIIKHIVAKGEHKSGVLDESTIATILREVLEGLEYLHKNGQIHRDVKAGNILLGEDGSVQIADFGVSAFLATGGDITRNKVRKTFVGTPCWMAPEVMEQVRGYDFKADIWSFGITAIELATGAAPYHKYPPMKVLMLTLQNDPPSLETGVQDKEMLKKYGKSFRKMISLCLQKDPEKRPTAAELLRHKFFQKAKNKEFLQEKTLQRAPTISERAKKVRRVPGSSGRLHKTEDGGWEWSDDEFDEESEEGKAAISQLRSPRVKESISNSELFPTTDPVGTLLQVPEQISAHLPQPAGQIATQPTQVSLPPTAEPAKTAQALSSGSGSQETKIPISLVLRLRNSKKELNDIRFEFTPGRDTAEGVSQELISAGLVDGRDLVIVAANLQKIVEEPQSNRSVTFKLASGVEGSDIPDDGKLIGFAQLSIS

What was measured:
Assay in all cases: radiometric filter-binding kinase assay, Kinase HotSpot
Settings in all cases: compound 0.5 µM; ATP 10 µM
PDGFRB (human) = PDGFRB (human) (UniProt P09619)
CAMK2B (human) = CAMK2B (human) (UniProt Q13554)
GSK3A (human) = GSK3A (human) (UniProt P49840)
MAPK14 (human) = MAPK14 (human) (UniProt Q16539)
BLK (human) = BLK (human) (UniProt P51451)
PAK4 (human) = PAK4 (human) (UniProt O96013)
SRMS (human) = SRMS (human) (UniProt Q9H3Y6)
GRK4 (human) = GRK4 (human) (UniProt P32298)
NEK9 (human) = NEK9 (human) (UniProt Q8TD19)
LRRK2 (human) = LRRK2 (human) (UniProt Q5S007)
MELK (human) = MELK (human) (UniProt Q14680)
PLK2 (human) = PLK2 (human) (UniProt Q9NYY3)
ALK (human) = ALK (human) (UniProt Q9UM73)
PRKG2 (human) = PRKG2 (human) (UniProt Q13237)
STK25 (human) = STK25 (human) (UniProt O00506)
NTRK1 (human) = NTRK1 (human) (UniProt P04629)
ZAP70 (human) = ZAP70 (human) (UniProt P43403)
EPHA6 (human) = EPHA6 (human) (UniProt Q9UF33)
EPHA1 (human) = EPHA1 (human) (UniProt P21709)
IKBKE (human) = IKBKE (human) (UniProt Q14164)
PRKCB2 (human) = PRKCB2 (human) (UniProt P05771)
WNK3 (human) = WNK3 (human) (UniProt Q9BYP7)
STK4 (human) = STK4 (human) (UniProt Q13043)
ABL1 (human) = ABL1 (human) (UniProt P00519)
DCLK2 (human) = DCLK2 (human) (UniProt Q8N568)
CDC42BPB (human) = CDC42BPB (human) (UniProt Q9Y5S2)
MAP3K14 (human) = MAP3K14 (human) (UniProt Q99558)
DAPK2 (human) = DAPK2 (human) (UniProt Q9UIK4)
KIT (human) = KIT (human) (UniProt P10721)
CSNK1G3 (human) = CSNK1G3 (human) (UniProt Q9Y6M4)
SRPK1 (human) = SRPK1 (human) (UniProt Q96SB4)
CAMK2G (human) = CAMK2G (human) (UniProt Q13555)
PRKCG (human) = PRKCG (human) (UniProt P05129)
HIPK4 (human) = HIPK4 (human) (UniProt Q8NE63)
FGFR4 (human) = FGFR4 (human) (UniProt P22455)
OXSR1 (human) = OXSR1 (human) (UniProt O95747)
MAP4K2 (human) = MAP4K2 (human) (UniProt Q12851)
EPHA8 (human) = EPHA8 (human) (UniProt P29322)
NEK11 (human) = NEK11 (human) (UniProt Q8NG66)
PIM2 (human) = PIM2 (human) (UniProt Q9P1W9)
NLK (human) = NLK (human) (UniProt Q9UBE8)
CAMKK2 (human) = CAMKK2 (human) (UniProt Q96RR4)

With O=C1Nc2ccc3ncsc3c2/C1=C/c1c[nH]cn1 the residual activity (PDGFRB (human)) was 41%, the residual activity (CAMK2B (human)) was 40.8% and the residual activity (GSK3A (human)) was 2.04%. It also gave a residual activity (MAPK14 (human)) of 93.9%, a residual activity (BLK (human)) of 81.3% and a residual activity (PAK4 (human)) of 76.5%. The residual activity (SRMS (human)) was 96.9%, the residual activity (GRK4 (human)) was 86.9% and the residual activity (NEK9 (human)) was 32%. For the same compound, the residual activity (LRRK2 (human)) was 8.5%, the residual activity (MELK (human)) was 4.74% and the residual activity (PLK2 (human)) was 78.7%. For the same compound, the residual activity (ALK (human)) was 72.4%, the residual activity (PRKG2 (human)) was 3% and the residual activity (STK25 (human)) was 30.7%. It also gave a residual activity (NTRK1 (human)) of 53.7%, a residual activity (ZAP70 (human)) of 99% and a residual activity (EPHA6 (human)) of 48.6%. For the same compound, the residual activity (EPHA1 (human)) was 83.9%, the residual activity (IKBKE (human)) was 27.6% and the residual activity (PRKCB2 (human)) was 87.6%. The residual activity (WNK3 (human)) was 84.9%, the residual activity (STK4 (human)) was 5.51% and the residual activity (ABL1 (human)) was 71.6%. The residual activity (DCLK2 (human)) was 69.8%, the residual activity (CDC42BPB (human)) was 87.8% and the residual activity (MAP3K14 (human)) was 142%. For the same compound, the residual activity (DAPK2 (human)) was 125%, the residual activity (KIT (human)) was 46.8% and the residual activity (CSNK1G3 (human)) was 65.8%. For the same compound, the residual activity (SRPK1 (human)) was 108%, the residual activity (CAMK2G (human)) was 101% and the residual activity (PRKCG (human)) was 98.7%. It also gave a residual activity (HIPK4 (human)) of 87.8%, a residual activity (FGFR4 (human)) of 90.7% and a residual activity (OXSR1 (human)) of 79.8%. For the same compound, the residual activity (MAP4K2 (human)) was 10%, the residual activity (EPHA8 (human)) was 93.4% and the residual activity (NEK11 (human)) was 112%. It also gave a residual activity (PIM2 (human)) of 83%, a residual activity (NLK (human)) of 35.5% and a residual activity (CAMKK2 (human)) of 54.4%.
